Source: ChEMBL document CHEMBL3779868, “Tetrahydroprotoberberine alkaloids with dopamine and σ receptor affinity” (Bioorg Med Chem, 2016)

Protein sequences, listed by entry. Tags and fused reporters are not part of them.
UniProt Q99720, whole entry: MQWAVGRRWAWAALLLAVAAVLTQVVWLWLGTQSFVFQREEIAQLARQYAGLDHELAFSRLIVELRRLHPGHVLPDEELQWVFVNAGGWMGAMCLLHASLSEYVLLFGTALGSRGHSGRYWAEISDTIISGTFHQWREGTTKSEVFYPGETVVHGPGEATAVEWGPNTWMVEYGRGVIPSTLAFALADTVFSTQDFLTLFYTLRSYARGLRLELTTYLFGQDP
UniProt P14416, whole entry: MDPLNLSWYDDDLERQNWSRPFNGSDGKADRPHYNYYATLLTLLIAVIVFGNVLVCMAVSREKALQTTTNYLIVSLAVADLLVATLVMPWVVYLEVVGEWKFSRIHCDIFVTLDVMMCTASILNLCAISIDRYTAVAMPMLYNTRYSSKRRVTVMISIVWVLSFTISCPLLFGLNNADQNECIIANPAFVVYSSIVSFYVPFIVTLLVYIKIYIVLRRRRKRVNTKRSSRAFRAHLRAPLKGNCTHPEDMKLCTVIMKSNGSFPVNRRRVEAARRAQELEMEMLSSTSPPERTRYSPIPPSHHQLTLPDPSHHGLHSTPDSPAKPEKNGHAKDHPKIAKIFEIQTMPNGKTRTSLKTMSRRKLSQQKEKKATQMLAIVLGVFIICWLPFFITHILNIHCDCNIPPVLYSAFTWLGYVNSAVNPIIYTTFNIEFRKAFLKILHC

Key:
Homo sapiens [1] = organism: Homo sapiens; test: Selectivity ratio of Ki for human dopamine D2 receptor to human dopamine D1 receptor
Homo sapiens [2] = organism: Homo sapiens; test: Selectivity ratio of Ki for human dopamine D2 receptor to human dopamine D3 receptor
Homo sapiens [3] = organism: Homo sapiens; test: Selectivity ratio of Ki for human dopamine D3 receptor to human dopamine D1 receptor
Homo sapiens [4] = organism: Homo sapiens; test: Selectivity ratio of Ki for human sigma1 receptor to human sigma2 receptor
[5] = target: Sigma non-opioid intracellular receptor 1 (Homo sapiens, UniProt Q99720); test: Displacement of [3H](+)-pentazocine from human sigma1 receptor by PDSP assay
D(2) dopamine receptor = D(2) dopamine receptor (Homo sapiens, UniProt P14416); test: Displacement of [3H]N-methylspiperone from human dopamine D2 receptor by PDSP assay

Work on CCCOc1ccc2c(c1OC)CN1CCc3cc(OC)c(O)cc3C1C2 (centres undefined) yielded a Ratio Ki (Homo sapiens [1]) of 12.7, a Ratio Ki (Homo sapiens [2]) of 1.9 and a Ratio Ki (Homo sapiens [3]) of 6.8. For the same compound, the Ratio Ki (Homo sapiens [4]) was 8.5.
COc1cc2c(cc1O)C1Cc3ccc(OCC4CC4)c(OC)c3CN1CC2 (centres undefined) gave a Ratio Ki (Homo sapiens [1]) of 4.5, a Ratio Ki (Homo sapiens [3]) of 4.5 and a Ratio Ki (Homo sapiens [4]) of 5.
COc1cc2c(cc1O)C1Cc3ccc(OC)c(OC)c3CN1CC2 (centres undefined) showed a Ki [5] of 106 nM and a Ki (D(2) dopamine receptor) of 102 nM.
